Test system: SSTR2 N276A and F294A mutants
Conditions: N276A or F294A, 9 min administration

Structure (SMILES): C[C@@H](O)[C@@H]1NC(=O)[C@H](CCCCN)NC(=O)[C@@H](Cc2c[nH]c3ccccc23)NC(=O)[C@H](Cc2ccccc2)NC(=O)[C@@H](NC(=O)[C@H](N)Cc2ccccc2)CSSC[C@@H](C(=O)N[C@H](CO)[C@@H](C)O)NC1=O [octreotide]
- FlAsH-BRET signal versus wild-type: decreased
